pKd: −log10 of the molar value. Read-outs that look alike come from different tables or passages of the source.
Legend:
Assay in all cases: MST
[1] = molecular target: recombinant IRF6 protein (UniProt O14896)
[2] = molecular target: recombinant IRF6 protein (UniProt O14896); remark: listed apart in the source
[3] = molecular target: recombinant IRF6 protein (UniProt O14896); remark: listed apart in the source
[4] = molecular target: recombinant IRF6 protein (UniProt O14896); remark: listed apart in the source
[5] = molecular target: recombinant IRF6 protein (UniProt O14896); remark: listed apart in the source

## recombinant IRF6 protein (from UniProt O14896 1-467) (natural protein)
[1]
  pKd: 5.63
[2]
  pKd: 5.50
[3]
  pKd: 6.64
[4]
  pKd: 3.63
[5]
  pKd: 6.32

Reference: paper doi:10.1101/2022.11.28.518222
